Patent US6951654B2, “Intravaginal drug delivery devices for the administration of an antimicrobial agent” (Galen (Chemicals) Limited, priority 2001, dated 2005)

Experiment: Solubility in water
Details: at 37° C.

oestradiol-3-acetate
aqueous solubility: 190 μg per 100 ml
